Data: patent US12622977B2, “Antibody drug conjugate” (CHIA TAI TIANQING PHARMACEUTICAL GROUP CO., LTD., priority 2020, dated 2026)

Legend:
Format in all cases: cell-based
[1] = test system: BT474 Her2+++ tumor cells; test: Killing of Her2 positive target cell BT474 with human PBMC effector cells (ADCC, CytoTox96); conditions: effector-to-target ratio 10:1
[2] = test system: JIMT-1 tumor cells; test: Killing of trastuzumab-resistant cell JIMT-1 with human PBMC effector cells (ADCC, CytoTox96); conditions: human PBMC effector cells, effector-to-target ratio 20:1
[3] = test system: BT474 cells; test: Proliferation inhibition of BT474 cells by antibodies and antibody-drug conjugates (CTG); conditions: drug range 5000 ng/mL to […]
[4] = test system: SK-BR-3 cells; test: Proliferation inhibition of SK-BR-3 cells by antibodies and antibody-drug conjugates (CTG); conditions: SK-BR-3, CTG, drug range 5000 ng/mL to […]
[5] = test system: NCI-N87 Her2++ tumor cells; test: Killing of Her2 positive target cell NCI-N87 with human PBMC effector cells (ADCC, CytoTox96); conditions: effector-to-target ratio 10:1
[6] = test system: BT474 Her2+++ tumor cells; test: Inhibition of proliferation of BT474 Her2+++ tumor cells (CCK-8); conditions: BT474, 5 days
[7] = test system: NCI-N87 cells; test: Proliferation inhibition of NCI-N87 cells by antibodies and antibody-drug conjugates (CTG); conditions: drug range 5000 ng/mL to […]

## 23C2 Her2-1
[1]
  EC50 of killing of BT474 tumor cells: 4.728 ng/mL

## Trastuzumab: recombinant humanized monoclonal antibody against HER2, trade name HERCEPTIN; prepared per WHO INN RL78 sequence [reference compound]
[2]
  EC50: 0.0744 nM
[3]
  Inhibition rate: 67.91%
[4]
  Inhibition rate: 20.36%
[5]
  EC50: 0.0747 nM
[6]
  proliferation inhibition rate: 54.12%
[7]
  Inhibition rate: 34.51%
